Kd, koff and kon data for three substances are collected here from article PMC10303687.

The target in experiment [1] is MDM2_(M. trossulus) SWIB domain (bay mussel (Mytilus trossulus)). The experiment in a line: fluorescence polarisation; displacement: FITC-labeled human p53TAD 15–26 (6 or 10 nM) and MDM2 constant, dilution series of unlabeled peptide; K D calculated from IC50; room temperature, same buffer as the kinetics.
The target in experiment [2] is MDM2_(H. sapiens) SWIB domain (human (Homo sapiens)). The description is as above.
For experiment [3] the target is unchanged. Put plainly: stopped-flow fluorescence kinetics; 10°C, 20 mM sodium phosphate pH 7.4, 150 mM NaCl, 1 mM TCEP; Trp23 emission; MDM2 constant at 0.5–2 μM, p53TAD varied 1–10 μM for k on; k off from displacement of the 1 μM:1 μM complex by 10–20 μM dansylated human p53TAD peptide; K D = k off/k on.

With p53TAD_(M. trossulus) (peptide), the Kd (commonly a measure of binding affinity in units of concentration) in experiment [1] is 15000 nM.

As for “p53TAD_(H. sapiens)^15–26 (from UniProt P04637 15-26) (peptide)”, the Kd in experiment [2] is 18 nM; in experiment [3], 11 nM.

With p53TAD_(D. rerio)^N26L (peptide), in experiment [3], the Kd worked out at 190 nM, the koff (usually the rate constant with which the complex falls apart) came out at 1.4 s⁻¹ and the kon (usually a measure of how fast the partners come together) is 7.4e+06 M⁻¹ s⁻¹.
